{"sequences": {"note": "Protein sequences, listed by entry. Tags and fused reporters are not part of them.", "UniProt Q92847, whole entry": "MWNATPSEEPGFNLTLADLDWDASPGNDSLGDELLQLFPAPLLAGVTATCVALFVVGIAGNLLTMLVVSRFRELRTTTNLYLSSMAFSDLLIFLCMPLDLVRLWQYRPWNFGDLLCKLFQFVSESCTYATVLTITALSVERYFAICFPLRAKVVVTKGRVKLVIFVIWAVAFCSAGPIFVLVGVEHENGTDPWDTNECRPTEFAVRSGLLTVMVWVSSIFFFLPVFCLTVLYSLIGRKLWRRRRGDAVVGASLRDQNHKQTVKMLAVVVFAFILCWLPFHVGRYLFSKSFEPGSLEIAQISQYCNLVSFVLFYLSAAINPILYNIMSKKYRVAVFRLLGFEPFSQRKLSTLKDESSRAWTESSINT", "UniProt O08725, whole entry": "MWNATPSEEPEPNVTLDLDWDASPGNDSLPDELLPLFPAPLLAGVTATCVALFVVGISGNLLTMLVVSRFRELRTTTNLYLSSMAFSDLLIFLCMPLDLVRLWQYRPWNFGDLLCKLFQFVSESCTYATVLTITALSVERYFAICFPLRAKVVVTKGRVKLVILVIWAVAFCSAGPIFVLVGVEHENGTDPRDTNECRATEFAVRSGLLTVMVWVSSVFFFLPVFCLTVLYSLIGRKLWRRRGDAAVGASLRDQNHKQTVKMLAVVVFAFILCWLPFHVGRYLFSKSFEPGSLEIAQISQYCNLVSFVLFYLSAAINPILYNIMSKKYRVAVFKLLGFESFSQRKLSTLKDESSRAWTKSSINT"}, "source": "patent US20080269116A1", "about": "“Methods of Inhibiting Proinflammatory Cytokine Expression Using Ghrelin” (priority 2004, published 2008)", "key": {"[1]": {"target": "T1, GHS-R (Homo sapiens, UniProt Q92847)", "T1 construct": "endogenous in cells; host or cells: cultured human T cells", "experiment": "Intracellular calcium mobilization in cultured human T cells (Fura-2)", "assay_type": "cell-based", "settings": "ghrelin 100 ng/ml", "experimental": "Intracellular calcium mobilization. […] Cells were incubated in PBS containing 5 μM Fura-2 AM for 30 minutes at room temperature. The cells were subsequently washed and then resuspended at 1×10^6/mL in PBS. A total of 2 mL of the cell suspension was placed in a continuously stirring cuvette at room temperature in an LS50B spectrophotometer (Perkin-Elmer, Wellesley, Mass.). Fluorescence was monitored at λex1=340 nm, λex2=380 nm, and λem=510 nm. The data are presented as the relative ratio of fluorescence excited at 340 and 380 nm."}, "[2]": {"target": "T2, GHS-R (Rattus norvegicus, UniProt O08725)", "T2 construct": "host or cells: CHO cells transfected with GHS-R (Kojima et al. 1999)", "settings": "GHS-R-transfected Chinese Hamster Ovary (CHO) cells; cited from earlier work"}}, "data": [{"substance": "ghrelin", "values": [{"measurement": "rise in intracellular [Ca^2+]", "setting": "[1]", "result": "significant and specific rise in intracellular [Ca^2+]"}, {"measurement": "intracellular calcium release", "setting": "[2]", "result": "induce intracellular calcium release"}]}]}
